Measured values: ChEMBL document CHEMBL1152900, “Synthesis and evaluation of the antioxidant and anti-inflammatory activity of novel coumarin-3-aminoamides and their alpha-lipoic acid adducts” (Eur J Med Chem, 2009)

Experiment: Antioxidant activity assessed as reduction of DPPH activity at 0.1 mM after 20 mins
Assay type: functional
Design: scale not given: the % may be the effect or the level left
Outline: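 DPPH at 0.05 mM final in absolute ethanol was mixed with test compounds in ethanol at 0.1 or 0.5 mM final, with ethanol as the control. After 20 and 60 min at room temperature, absorbance was read at 517 nm. At least triplicate.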

CC(Cc1ccc(O)c(O)c1)C(C)Cc1ccc(O)c(O)c1 (stereo unspecified)
Activity: 81%
